The values below are quoted from earlier work in the CATMoS acute toxicity set (Mansouri et al. 2021).

“And” between values parts separate entries of the source, which are not always exact repeats. Identical values can stand only once.

By LD50 is commonly meant the dose at which mortality reaches 50%.

The nature of the data set: rat acute oral toxicity. Particulars: in vivo.

Regarding `CCOP(O)(=S)CC` (stereo unspecified), the LD50 is 600 mg/kg. For the compound `CCO[PH](=S)OCC`, the LD50 is 200 mg/kg. `CB1P(C)B(C)P(C)B(C)P1C` (stereo unspecified): the LD50 was 13.5 mg/kg.

For `CC(C)O[PH](=O)OC(C)C`, the LD50 was 1700 mg/kg. For `CCCSP(C)SCCC`, the LD50 was 2.24 mg/kg. Take `CP(=O)(O)O`: the LD50 was 2300 mg/kg. For the compound `CC(C)N(CCO)C(C)C`, the LD50 is 860 mg/kg.

For `Cc1cc([N+](=O)[O-])cc([N+](=O)[O-])c1`, the LD50 is 216 mg/kg. For `CCC(=O)N(c1ccccn1)C(C)CN1CCCCC1` (stereo unspecified), the LD50 is 1290 mg/kg.

With `CC(C)OP(C)(=O)O`, the LD50 was 6070 mg/kg. As for `O=[N+]([O-])C(F)(COCOCC(F)([N+](=O)[O-])[N+](=O)[O-])[N+](=O)[O-]`, the LD50 was 2400 mg/kg. Take `CC(CO[N+](=O)[O-])O[N+](=O)[O-]` (stereo unspecified): the LD50 is 250 mg/kg.

As for `Cc1c([N+](=O)[O-])cccc1[N+](=O)[O-]`, the LD50 was 177 mg/kg.

As for `CCOP(=O)(O)CC`, the LD50 is 2110 mg/kg. `CO[N+](=O)[O-]`: the LD50 is 344 mg/kg. As to `[Ag+].[C-]#N`, the LD50 was 123 mg/kg. For `CP(Cl)Cl`, the LD50 is 830 mg/kg. Take `O=[N+]([O-])C(F)(COCC(COCC(F)([N+](=O)[O-])[N+](=O)[O-])(N(F)F)N(F)F)[N+](=O)[O-]`: the LD50 is 812 mg/kg. For `CCN(CC)CCCl`, the LD50 was 17 mg/kg and 50 mg/kg. As to `Cc1ccc([N+](=O)[O-])c([N+](=O)[O-])c1`, the LD50 was 807 mg/kg. As to `O=[N+]([O-])OCC1CO1` (stereo unspecified), the LD50 is 460 mg/kg. With `CC(CO[N+](=O)[O-])(CO[N+](=O)[O-])CO[N+](=O)[O-]`, the LD50 was 1030 mg/kg.

`CCCP(=O)(O)OCC`: the LD50 was 2300 mg/kg. With `O=C(O)CCC([N+](=O)[O-])([N+](=O)[O-])[N+](=O)[O-]`, the LD50 was 708 mg/kg. On to `O=[N+]([O-])c1cc([N+](=O)[O-])c(O)c([N+](=O)[O-])c1`, for which the LD50 is 200 mg/kg. With `[O-][n+]1onc2c1c1no[n+]([O-])c1c1no[n+]([O-])c21`, the LD50 is 2880 mg/kg. For the compound `OCCSCCO`, the LD50 is 6610 mg/kg. Take `O=[N+]([O-])OCC(O)CO[N+](=O)[O-]`: the LD50 was 1060 mg/kg. As for `[C-]#N.[Na+]`, the LD50 was 6.44 mg/kg. For the compound `CC(C)N(CCCl)C(C)C`, the LD50 was 96.8 mg/kg. As for `O=[N+]([O-])OCC(CO)O[N+](=O)[O-]` (stereo unspecified), the LD50 was 1420 mg/kg. On to `[C-]#N.[Cu+]`, for which the LD50 was 1260 mg/kg.

`Cc1cccc([N+](=O)[O-])c1[N+](=O)[O-]`: the LD50 is 911 mg/kg. With `N=C(N)N[N+](=O)[O-]`, the LD50 was 10200 mg/kg.

`CC(C)OP(OC(C)C)OC(C)C`: the LD50 was 167 mg/kg. With `CN(C)CCCl`, the LD50 is 238 mg/kg.
